Laboratory results from US20110233146A1, “S[…] CONTROL COMPOSITION, SYSTEMS, AND RELATED METHODS THEREFOR” (Siemens Water Technologies Corp., priority 2009, published 2011).

System: dissolved sulfide
Test: Sewerage system field trial (Example 1): dissolved sulfide grab samples at LS481, LS480 and treatment plant influent
Conditions: 10/14 to 10/17, after 10 gal anthraquinone slug on 10/13 at LS482; with calcium hydroxide slurry 258 GPD; nitrate salt solution 197 GPD

O=C1c2ccccc2C(=O)c2ccccc21 [Anthraquinone, anthraquinone]
LS481 S^2− MH In Grab: 0 mg/L
